Measured values reported in US11753408B2, “Compounds and method for blocking transmission of malarial parasite” (The United States of America, as represented by the …, priority 2016, dated 2023).

Assays:
[1] = system: Stage III-V gametocytes (blood stage P. falciparum parasites); assay: In vitro drug activity on gametocytes (AlamarBlue viability assay); type: cell-based, Plasmodium falciparum; conditions: read-out: Gametocyte EC50, 72 h incubation
Procedure: (§1) Cell culture. Asexual parasites of P. falciparum strain 3D7 were cultured as described previously [Trager W, et al., Journal of Parasitology 2005, 91: 484-486], Stage III-V gametocytes were selected and enriched with 3-day treatment with 50 mM N-acetylglucosamine (NAG) and the following Percoll density gradient centrifugation after gametocyte production [Tanaka T Q, et al., Molecular and Biochemical Parasitology, 2011, 111: 160-163], Gametocytes of HB3 and Dd2 strains were produced and then set up for assay in a similar process. HepG2 cells (ATCC, cat. no. 77400) were cultured in 175-cm^2 tissue culture flasks with 30 ml growth medium at 37° C. in a 5% CO2 humidified atmosphere. Growth medium was made with Dulbecco's Modified Eagle Medium with 10% fetal bovine serum (FBS). Growth medium was replaced every other day and cells were passed at 75% confluence.
Compound screening experiments were performed as previously described [Tanaka T Q et al., Molecular and Biochemical Parasitology, 2013, 3188: 20-25], Briefly, 2.5 μl/well incomplete medium was dispensed into each well of 1,536-well plates using the Multidrop Combi followed by 23 nl compound transferring using the NX-TR Pintool (WAKO Scientific Solutions, San Diego, Calif.). 2.5 μl/well of gametocytes was dispensed with a seeding density of 20,000 cells/well using the Multidrop Combi. The assay plates were incubated for 72 h at 37° C. with 5% CO2. After addition of 5 μl/well of 2× AlamarBlue dye (Life Technologies, cat. no. DALI 100), the plates were incubated for 24 h at 37° C. with 5% CO2 and were read in a fluorescence detection mode (Ex=525 nm, Em=598 nm) on a ViewLux plate reader (PerkinElmer).
Stage III-V gametocytes (blood stage P. falciparum parasites) were enriched with treatment with 50 mM N-acetylglucosamine (NAG) and Percoll density gradient centrifugation as described previously^1. Briefly, 2.5 μl/well incomplete medium was dispensed into each well of 1,536-well plates using the Multidrop Combi followed by 23 nl compound transfer using the NX-TR Pintool (WAKO Scientific Solutions, San Diego, Calif.). Then, 2.5 μl/well of gametocytes was dispensed with a seeding density of 20,000 cells/well using the Multidrop Combi. The assay plates were incubated for 72 h at 37° C. with 5% CO2. After addition of 5 μl/well of 2× AlamarBlue dye (Life Technologies, cat. no. DALI 100), the plates were incubated for 24 h at 37° C. with 5% CO2 and then were read in a fluorescence detection mode (Ex=525 nm, Em=598 nm) on a ViewLux plate reader (PerkinElmer).

[2] = system: Asexual parasites of P. falciparum strain 3D7; assay: In vitro drug activity on asexual parasites (SYBR Green assay); type: cell-based, Plasmodium falciparum; conditions: read-out: Asexual EC50, P. falciparum 3D7 asexual parasites, 72 h
Procedure: as §1
Asexual parasites of P. falciparum strain 3D7 were cultured as described previously (Trager, W. et al., J. Parasitol. 2005, 91(3): 484-486). Drug activity on asexual stage parasites was tested using a SYBR Green assay as described previously (Eastman, R. T. et al., Antimicrob. Agents Chemother. 2013, 57(1): 425-435; Smilkstein, M. et al., Antimicrob. Agents Chemother. 2004, 48(5): 1803-1806). Briefly, parasites were diluted to 0.5% parasitemia in complete culture medium with 2% hematocrit and drugs diluted in DMSO (≤0.5%) and were loaded into a 96-well plate (200 μl/well). No drug and RBC alone wells were included as positive and background controls, respectively, and each testing condition was examined in duplicated. After 72 h incubation under the standard culture condition and a freeze-thaw lysis step at −80° C. and room temperature, 100 μl/well of lysis buffer containing SYBR Green I was added to the parasite culture and incubated for 30 min at room temperature. The fluorescence of each well was measured at 520 nm following excitation at 490 nm using a FLUOstar Optima™ microplate reader (BMG Labtech).

[3] = Microsomal stability (rat); type: in vitro ADME; conditions: rat microsomes
Solubility at pH 7.4 = type: physicochemical

Row | Compound | EC50 [2] [nM] | Microsomal Stability (rat) T1/2 [3] [min] | Sol @ pH 7.4 (ug/mL) (Solubility at pH 7.4) | EC50 [1] [nM]
1 | CCN1Cc2cc(-n3c(=O)[nH]c4cnc5ccc(-c6ccc(CN(C)C)cc6)cc5c43)ccc2C1=O | 3530 | >30.0 | 58.6 | 11300
2 | CN(C)Cc1ccc(-c2ccc3ncc4c(c3c2)n(-c2cccc(S(N)(=O)=O)c2)c(=O)n4C)cc1 |  | >30 | 3.7 | 28700
3 | CC(=O)c1cnc2ccc(-c3ccc(Cl)cc3)cc2c1Nc1ccc(C(=O)NC2CC2)cc1 | 5120 |  |  | 
4 | O=C(NC1CC1)c1ccc(-n2c(=O)[nH]c3cnc4ccc(-c5ccc(Cl)cc5)cc4c32)cc1 | 914 |  |  | 
5 | CN(C)Cc1ccc(-c2ccc3ncc4[nH]c(=O)n(-c5cccc(S(N)(=O)=O)c5)c4c3c2)cc1 | 14700 |  |  | 
6 | Cc1ccc(S(C)(=O)=O)cc1-n1c(=O)[nH]c2cnc3ccc(-c4ccc(CN(C)C)cc4)cc3c21 | 4370 |  |  | 14600
7 | NC(=O)c1cnc2ccc(-c3ccc(Cl)cc3)cc2c1Nc1ccc(C(=O)NC2CC2)cc1 | 490 |  |  | 
8 | N#Cc1cccc(-c2ccc3ncc4[nH]c(=O)n(-c5ccc(C(=O)N6CCOCC6)cc5)c4c3c2)c1 | 632 |  | 5.2 | 1060
9 | CN(C)CCNC(=O)c1ccc(-n2c(=O)n(C)c3cnc4ccc(-c5ccc(Cl)cc5)cc4c32)cc1 | 431 |  |  | 
10 | CNC(=O)c1cccc(-n2c(=O)[nH]c3cnc4ccc(-c5ccc(CN(C)C)cc5)cc4c32)c1 |  | >30 | 12.7 | 50100
11 | CN(C)Cc1ccc(-c2ccc3ncc4[nH]c(=O)n(-c5ccc6c(c5)C(=O)NC6)c4c3c2)cc1 | 14100 | >30.0 | 37.7 | 
12 | CN(C)C(=O)c1cccc(-n2c(=O)[nH]c3cnc4ccc(-c5ccc(Cl)cc5)cc4c32)c1 | 4280 | 19.6 | <1 | 
13 | Cn1c(=O)n(-c2ccc(C(=O)NC3CC3)cc2)c2c3cc(-c4ccc(Cl)cc4)ccc3ncc21 | 683 |  |  | 
14 | CN(C)Cc1ccc(-c2ccc3ncc4[nH]c(=O)n(-c5ccc6c(c5)CNC6=O)c4c3c2)cc1 | 3800 | >30.0 | 40 | 
15 | Cn1c(=O)n(-c2cccc(C(N)=O)c2)c2c3cc(-c4cccc(C(C)(C)C(=O)O)c4)ccc3ncc21 | 43800 |  |  | 
16 | Cn1c(=O)n(-c2ccc(C(=O)N3CCOCC3)cc2)c2c3cc(-c4cccc(C#N)c4)ccc3ncc21 | 1230 |  | 5.4 | 1120

More lines, main results first:

Row | EC50 [2] [nM] | Microsomal Stability (rat) T1/2 [3] [min] | Sol @ pH 7.4 (ug/mL) (Solubility at pH 7.4) | Compound | EC50 [1] [nM]
17 | 352 | >30.0 | 4.5 | Nc1ccc(-c2ccc3ncc4[nH]c(=O)n(-c5ccc(C(=O)NC6CC6)cc5)c4c3c2)cn1 | 29000
18 | 245 | 18.2 | <1.0 | Cc1ccc(-c2ccc3ncc4c(c3c2)n(-c2ccc(C(=O)N3CCOCC3)cc2)c(=O)n4C)cc1 | 689
19 | 226 | >30.0 | 1.6 | Cc1cc(C(=O)N2CCOCC2)ccc1-n1c(=O)[nH]c2cnc3ccc(-c4ccc(N)nc4)cc3c21 | 2230
20 | 251 |  |  | CN(C)CCNC(=O)c1ccc(-n2c(=O)n(C)c3cnc4ccc(-c5ccc(F)cc5)cc4c32)cc1 | 
21 | 418 |  |  | Cn1c(=O)n(-c2ccc(C(=O)N3CCOCC3)cc2)c2c3cc(-c4ccc(Cl)cc4)ccc3ncc21 | 719
22 | 350 |  |  | CN(C)CCCNC(=O)c1ccc(-n2c(=O)n(C)c3cnc4ccc(-c5ccc(F)cc5)cc4c32)cc1 | 
23 | 197 |  |  | Cn1c(=O)n(-c2ccc(C(=O)NC3CC3)cc2)c2c3cc(-c4ccc(F)cc4)ccc3ncc21 | 
24 | 67.8 |  |  | CS(=O)(=O)c1ccc(-n2c(=O)[nH]c3cnc4ccc(-c5ccc(N)nc5)cc4c32)cc1 | 558
25 | 154 |  |  | CN(C)CCCNC(=O)c1ccc(-n2c(=O)n(C)c3cnc4ccc(-c5ccc(Cl)cc5)cc4c32)cc1 | 
